# Laboratory results reported in PubChem BioAssay AID1259344 (Tox21, 2017).
# The entries are a selection whose mix differs from that of the whole data set. Results filed as inconclusive are left out. The source made the active and inactive calls. The call rests on the fitted dose curve; in most records, active means well fitted activation curve with a large enough effect; inconclusive means small, poorly fitted or top-dose-only effect; inactive means flat fitted curve, though single readings scatter.
# Experiment: qHTS assay to identify small molecule phospholipidosis (PLD) inducers
# Conditions: HepG2 phospholipidosis, LipidTOX Red imaging, 24 h
# Text: National Center for Advancing Translational Sciences [NCATS]
# Drug-induced Phospholipidosis (PLD) caused by cationic amphiphilic drugs is characterized by the appearance of unicentric or multicentric-lamellar bodies when viewed under electron microscope. Electron microscopy is the gold standard method for PLD detection, however, this method is time-consuming and labor intensive, making it unsuitable for evaluating a large set of compounds. A cell-based phospholipidosis assay has been developed using the LipidTox reagent in HepG2 cells and miniaturized into a 1536-well plate format. Drug induced phospholipid accumulation is stained with the LipidTox dyes in red color which then is determined using an automated high content screening system.
# HepG2 cells are dispensed at 900 cells/3 uL/well into Collagen I-coated 1536-well black-wall/clear-bottom assay plates (Greiner Bio-One, Monroe, NC) using the Multidrop Combi 8 channel dispenser (Thermo Fisher, Waltham, MA, USA). The assay plates are incubated at 37 C for 4 hours to allow the cell attachment. 3 uL of 1:500 LipidTOX Red dye is added using the dispenser, and then 23 nL compounds are added via a Wako Pintool station (Wako Automation, San Diego, CA). Amiodarone, a known PLD inducer, was used as a positive control and DMSO was used as a negative control. The assay plates were then incubated at 37 C for 24 hours.
# For fixations, 4 uL of 8% paraformaldehyde fixative solution containing 10 ug/mL Hoechst 33342 in Dulbecco's phosphate-buffered saline (DPBS) is added using a Kalypsys washer/dispenser (Kalypsys, San Diego, CA, USA). After incubation at room temperature for 30 min, the assay plates are washed once with DPBS using a Kalypsys washer/dispenser. The assay plates are then sealed and stored at 4 C before imaging. The fluorescence intensities (595 nm excitation, 615 nm emission for LipidTOX; 352 nm excitation, 461 nm emission for Hoechst 33342) are measured using an ImageXpress Micro Widefield High Content Screening System (Molecular Devices, Sunnyvale, CA, USA) with a 20x Plan Fluor objective. Images are acquired for one site in each well and analyzed with the MetaXpress software (Molecular Devices) using the Transfluor module. Several algorithmic outputs, such as pit count per well, pit count per cell, pit integrated intensity per well, and pit integrated intensity per cell, are used for quantitative image analysis for PLD.
# On the % scale 0 is the no-effect control and ±100 the full control effect.
smiles,measurement,setting,value
CN(C)CCS,PLD induction,at 38.3 µM (top of the series),inactive: 0.137%
O=[N+]([O-])[O-].[NH4+],PLD induction,at 38.3 µM (top of the series),inactive: 0.0384%
O=[N+]([O-])OCC(CO[N+](=O)[O-])(CO[N+](=O)[O-])CO[N+](=O)[O-],PLD induction,at 38.3 µM (top of the series),inactive: -0.53%
O=[N+]([O-])c1cccc([N+](=O)[O-])c1,PLD induction,at 38.3 µM (top of the series),inactive: -1.15%
same,PLD induction,at 78.4 µM (top of the series),inactive: -3.53%
CC(C)N(CCCl)C(C)C,PLD induction,at 38.3 µM (top of the series),inactive: -2.7%
C/C1=C2N=C(/C=C3N=C(/C(C)=C4\[N-][C@@](C)([C@@H]5N=C1[C@](C)(CCC(=O)NC[C@@H](C)OP(=O)([O-])O[C@H]1[C@@H](O)[C@@H](n6cnc7cc(C)c(C)cc76)O[C@@H]1CO)[C@H]5CC(N)=O)[C@@](C)(CC(N)=O)[C@@H]4CCC(N)=O)[C@@](C)(CC(N)=O)[C@@H]\3CCC(N)=O)C(C)(C)[C@@H]/2CCC(N)=O.[C-]#N.[Co+3],PLD induction,at 15.5 µM (top of the series),inactive: 4.59%
Cc1cccc([N+](=O)[O-])c1[N+](=O)[O-],PLD induction,at 15.5 µM (top of the series),inactive: -3.58%
OCCSCCO,PLD induction,at 38.3 µM (top of the series),inactive: 0.38%
CC(C)OP(=O)(F)OC(C)C,PLD induction,at 38.3 µM (top of the series),inactive: -0.229%
